The source of these data is patent US6949383B2 (priority 1998, dated 2005).

In one experiment the test system is Wild-Type. The experiment in a line: Minimum growth inhibiting concentration (MIC) of antibiotic substances. It is filed as cell-based, Escherichia coli.
Another experiment relates to Super-Amp-resistant dnaQ. The description is as above. It is filed as cell-based, Escherichia coli.
In a further experiment the test system is dnaQ. The experiment is described as above. It is filed as cell-based, Escherichia coli.
Another experiment has as its system wild type (dnaQ+ strain). The experiment in a line: MNNG mutagenesis treatment: growth or extinction of the treated group.

In the case of Tetracyctine, the “Minimum growth inhibiting concentration (MIC)” value in the experiment with Wild-Type, in the experiment with Super-Amp-resistant dnaQ and in the experiment with dnaQ was 0.25 each time.

As for `CN(N=O)C(=N)N[N+](=O)[O-]`, the “Fate of MNNG-treated wild type group (d.o.: died out)” value was “d.o” in the experiment with wild type (dnaQ+ strain) (MNNG 3 μg/ml medium, 5th Run); “d.o” in the experiment with wild type (dnaQ+ strain) (MNNG 10 μg/ml medium, 2nd Run); “d.o” with wild type (dnaQ+ strain) (MNNG 30 μg/ml medium, 2nd Run). In addition, the “Fate of MNNG-treated group” value in the experiment on wild type (dnaQ+ strain) (high-concentration MNNG treatment) was “extinction of the microorganism took place”.
